Experiments:
[1] = Preliminary pharmacokinetics in male Wistar rats, plasma and brain; details: rat
5-HT6R [2] = molecular target: T1, 5-HT6R (Homo sapiens, UniProt P50406); details: NG108-15 cells transiently expressing human 5-HT6R
5-HT6R [3] = molecular target: T1, 5-HT6R; details: NG108-15 cells, 1 μM, 24 h

Protein sequences, listed by entry. Tags and fused reporters are not part of them.
UniProt P50406, whole entry: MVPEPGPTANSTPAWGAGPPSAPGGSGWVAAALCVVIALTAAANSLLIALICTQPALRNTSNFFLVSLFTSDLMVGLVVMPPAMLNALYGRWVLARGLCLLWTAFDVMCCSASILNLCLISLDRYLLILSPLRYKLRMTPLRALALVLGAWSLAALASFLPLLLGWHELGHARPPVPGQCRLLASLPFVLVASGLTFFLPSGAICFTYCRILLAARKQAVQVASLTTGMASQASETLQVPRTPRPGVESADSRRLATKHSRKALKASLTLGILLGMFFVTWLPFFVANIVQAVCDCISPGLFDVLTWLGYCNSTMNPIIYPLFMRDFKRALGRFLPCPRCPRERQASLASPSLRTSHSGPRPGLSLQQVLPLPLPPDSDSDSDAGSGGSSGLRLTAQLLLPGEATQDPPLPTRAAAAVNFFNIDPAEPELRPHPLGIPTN

| effect on basal cAMP levels (5-HT6R constitutive activity at Gs signaling) (5-HT6R [2]) | neurite length (5-HT6R constitutive activity at Cdk5 signaling) (5-HT6R [3]) | Structure (SMILES) | adrenergic alfa1 % inhibition at 1 microM (adrenergic α1R) [%] | C0 ([1]; male, Wistar, in vivo, iv, 3 mg/kg) [ng/mL] | C0 initial concentration ([1]; 3 mg/kg intravenous, brain) [ng/g] |
| --- | --- | --- | --- | --- | --- |
| – | – | Cl.Clc1cccc(Cn2ccc3c(N4CCNCC4)nc4ccccc4c32)c1 [PZ-1922, 1-(3-Chlorobenzyl)-4-(piperazin-1-yl)-1H-pyrrolo[3,2-c]quinoline Hydrochloride] | 1 | 244 | 293.6 |
| inhibited basal cAMP production | inhibit the Cdk5-induced neurite growth | O=S(=O)(c1ccccc1)c1cnc2c(N3CCNCC3)cccc2c1 [Intepirdine, reference compound] | – | – | – |

Reference: publication PMC10641814 (Journal of Medicinal Chemistry, 2023)
